Measured values published in patent US9434711B2 (Janssen Pharmaceutica, NV, priority 2007, dated 2016).

Amino acid sequences for entries named in this document (tags omitted). Residues count along the entry.
UniProt Q1A7N1, 1-1104: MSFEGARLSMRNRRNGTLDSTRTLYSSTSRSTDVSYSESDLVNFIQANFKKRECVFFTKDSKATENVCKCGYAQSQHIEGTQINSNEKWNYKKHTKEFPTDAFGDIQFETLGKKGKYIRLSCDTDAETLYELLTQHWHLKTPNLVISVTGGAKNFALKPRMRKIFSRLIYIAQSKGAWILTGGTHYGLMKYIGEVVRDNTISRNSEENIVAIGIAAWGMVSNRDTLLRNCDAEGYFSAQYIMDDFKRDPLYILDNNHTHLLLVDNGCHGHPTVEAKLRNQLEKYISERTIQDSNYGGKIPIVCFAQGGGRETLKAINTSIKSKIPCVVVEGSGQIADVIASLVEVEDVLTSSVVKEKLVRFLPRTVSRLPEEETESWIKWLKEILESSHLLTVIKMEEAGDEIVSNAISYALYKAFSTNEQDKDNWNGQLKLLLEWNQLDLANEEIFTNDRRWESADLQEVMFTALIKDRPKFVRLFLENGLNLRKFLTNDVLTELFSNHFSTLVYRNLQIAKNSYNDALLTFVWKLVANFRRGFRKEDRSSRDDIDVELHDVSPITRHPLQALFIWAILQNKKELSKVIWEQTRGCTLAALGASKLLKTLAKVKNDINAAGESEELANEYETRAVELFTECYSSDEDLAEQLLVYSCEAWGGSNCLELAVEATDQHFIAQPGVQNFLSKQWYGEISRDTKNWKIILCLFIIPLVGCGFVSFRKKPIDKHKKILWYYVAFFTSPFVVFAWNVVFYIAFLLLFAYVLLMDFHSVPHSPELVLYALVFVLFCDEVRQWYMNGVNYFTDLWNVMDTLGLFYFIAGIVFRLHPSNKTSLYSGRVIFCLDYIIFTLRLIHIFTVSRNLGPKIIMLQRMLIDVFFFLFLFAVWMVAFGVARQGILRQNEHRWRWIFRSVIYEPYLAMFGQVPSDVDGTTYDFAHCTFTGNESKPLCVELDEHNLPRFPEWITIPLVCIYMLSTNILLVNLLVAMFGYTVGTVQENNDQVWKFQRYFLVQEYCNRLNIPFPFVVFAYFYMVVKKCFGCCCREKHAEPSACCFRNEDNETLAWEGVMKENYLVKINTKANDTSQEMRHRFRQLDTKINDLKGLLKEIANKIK

These compounds were tested against canine TRPM8 (Canis lupus familiaris, UniProt Q1A7N1) (assay: In Vitro Canine TRPM8 Functional Assay (Ca2+ fluorescence, icilin activation)). Details: HEK293 cells stably expressing canine TRPM8, eight-point dose-response.
Assay type: cell-based
Protocol: The functional activity of compounds of the formula (I) was determined by measuring changes in intracellular calcium concentration using a Ca^2+-sensitive fluorescent dye. The changes in fluorescent signal were monitored by a fluorescence plate reader, either a FLIPR™ (Molecular Devices) or FDSS (Hamamatsu). Increases in intracellular Ca^2+ concentration were readily detected upon activation with icilin.
At 24 hrs prior to assay, HEK293 cells stably expressing canine TRPM8 were seeded in culture medium in black wall, clear-base poly-D-lysine coated 384-well plates (BD Biosciences, NJ, USA) and grown overnight in 5% CO2 at 37° C. On assay day, growth media was removed and cells were loaded with Calcium 3 Dye (Molecular Devices) for 35 min at 37° C., under 5% CO2 and then for 25 min at room temperature and atmosphere. Subsequently, cells were tested for agonist-induced increases in intracellular Ca^2+ levels using FLIPR™ or FDSS. Cells were challenged with a compound of the Formula (I) (at varying concentrations) and intracellular Ca^2+ was measured for 5 min prior to the addition of icilin to all wells to achieve a final concentration that produces approximately an 80% maximal response. EC50 or IC50 values for compounds of the present invention were determined from eight-point dose-response studies. Curves were generated using the average of quadruplicate wells for each data point.

Row | Compound | IC50
1 | Cc1c(N(CCCCC(F)(F)F)S(=O)(=O)CC(F)(F)F)sc2ccccc12 [Compound 673, N-(3-Methyl-benzo[b]thiophen-2-yl)-N-(5,5,5-trifluoro-pentyl)-2,2,2-trifluoro-ethanesulfonamide] | 73.8 nM
2 | CCCCN(c1cc2ccccc2s1)S(=O)(=O)c1ccccc1 [Compound 117, N-(Benzo[b]thiophen-2-yl)-N-(butyl)-benzenesulfonamide] | 53.7 nM
3 | COC(=O)[C@H](C)CN(c1sc2ccccc2c1Br)S(=O)(=O)c1ccccc1 [Compound 245, N-(3-Bromo-benzo[b]thiophen-2-yl)-N-[2(R)-methyl-2-carbomethoxy-ethyl]-benzenesulfonamide] | 14.2 nM
4 | Cc1c(N(Cc2ccc(OC(F)(F)F)cc2)S(=O)(=O)c2nc3ccccc3[nH]2)sc2ccccc12 [Compound 729, N-(3-Methyl-benzo[b]thiophen-2-yl)-N-(4-trifluoromethoxy-benzyl)-1H-benzimidazole-2-sulfonamide] | 96.2 nM

Compounds with a lower IC50, results first:

Row | IC50 | Compound
5 | 12.2 nM | COC(=O)[C@@H](C)CN(c1sc2ccccc2c1Br)S(=O)(=O)c1ccccc1 [Compound 244, N-(3-Bromo-benzo[b]thiophen-2-yl)-N-[2(S)-methyl-2-carbomethoxy-ethyl]-benzenesulfonamide]
6 | 11.7 nM | O=C(O)c1ccc(S(=O)(=O)N(CCC(F)(F)F)c2sc3ccccc3c2Br)cc1 [Compound 271, N-(3-Bromo-benzo[b]thiophen-2-yl)-N-(3,3,3-trifluoro-propyl)-4-carboxy-benzenesulfonamide]
